Source: PubChem BioAssay AID1347080 (ICCB-Longwood Screening Facility, Harvard Medical School, 2019)
Where “and” joins values, the source holds several entries; their conditions need not be identical. Equal values may be shown once. The list shows a part of the results, in another mix than the full data. Calls of active or inactive are those of the source.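 The calls were made as follows: active = compounds whose cell count with miR-34 switched on is under 0.7 times the count with it off; inactive = the rest.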

assay: viability loss with induced miR-34 in A549 – imaging, A549 dox-inducible miR-34, nuclei and caspase counts, primary screen (AID 1347080); settings: A549 miR-34 inducible, Hoechst nuclei count, 48 h; stronger effect = lower value; cell number ratio, induced over uninduced; also: test concentration not given here

SMILES | fold change
CN(CCCl)CCCl | inactive: 0.916 and inactive: 0.94
